{"source": "patent US8114641B2", "about": "“Methylbutanol as an advanced biofuel” (Synthetic Genomics, Inc., priority 2007, dated 2012)", "key": {"[1]": {"assay": "Physical properties of alcohol fuels and gasoline", "type": "physicochemical"}, "[2]": {"assay": "Fuel properties of the neat fuel"}}, "note": "Where two headings read alike, the source gives them in different places."}
{"substance": "Butanol [reference compound]", "values": [{"measurement": "Boiling Point, max", "setting": "[1]", "value": 118, "unit": "°C"}, {"measurement": "Flash Point, min", "setting": "[1]", "value": 36, "unit": "°C"}, {"measurement": "Freezing Point, max", "setting": "[1]", "value": "−90", "unit": "°C"}, {"measurement": "Energy Content", "setting": "10% blend in gasoline", "value": "113,320 BTU/gal"}, {"measurement": "Pump Octane (R + M)/2", "setting": "10% blend in gasoline, RBOB with Pump Octane 80.85 and RVP 7.37", "value": 83.3}, {"measurement": "Reid Vapor Pressure", "setting": "measured with 9.5% volumetric blend in RBOB", "value": "~7^B psi"}, {"measurement": "Energy Content", "setting": "[2]", "value": "107,196 BTU/gal"}, {"measurement": "Reid Vapor Pressure", "setting": "[2]", "value": 0.7, "unit": "psi"}, {"measurement": "Pump Octane (R + M)/2", "setting": "[2]; extrapolated from tests on blended fuels (blending octanes)", "value": 105.7}]}
